Source: patent US20080075695A1, “COMBINATION THERAPY METHOD FOR TREATING HEPATITIS C VIRUS INFECTION AND PHARMACEUTICAL COMPOSITIONS FOR USE THEREIN” (priority 2006, published 2008)

Test system: HCV
Experiment: Phase 1b clinical trial (MAD study), plasma HCV RNA
Format: in vivo, human
Settings: for MEAN Δ change from baseline (log HCV RNA level): on-therapy analysis
[1] = Day 14, PEG-INF alone, all genotypes
[2] = Day 14, PEG-INF alone, genotype 1

PEG-INF: pegylated interferon alfa-2b (PEG-Intron), administered subcutaneously [reference compound]
MEAN Δ change from baseline (log HCV RNA level) (Day 4, PEG-INF alone 1.5 μg/kg/dose, all genotypes): −1.03 log | MEAN Δ change from baseline (log HCV RNA level) (Day 7, PEG-INF alone 1.5 μg/kg/dose, all genotypes): −1.11 log | MEAN Δ change from baseline (log HCV RNA level) (Day 14, PEG-INF alone 1.5 μg/kg/dose, all genotypes): −1.69 log | % Subjects BQL (below quantification limits, <50 IU/mL) [1]: 2 (14%) | % Subjects with ≧1.5 log ↓ in log10 HCV RNA [1]: 7 (50%) | % Subjects with ≧2 log ↓ in log10 HCV RNA [1]: 6 (43%) | % Subjects with ≧3 log ↓ in log10 HCV RNA [1]: 2 (14%) | % Subjects with ≧2 log ↓ in log10 HCV RNA (Day 14, PEG-INF alone, all genotypes, listed as pegylated interferon): 43% | % Subjects with ≧1.5 log ↓ in log10 HCV RNA [2]: 4 (40%) | % Subjects with ≧2 log ↓ in log10 HCV RNA [2]: 4 (40%) | mean reduction from baseline in plasma HCV RNA (day 7, pegylated interferon alone): 1.1 log 10 | mean reduction from baseline in plasma HCV RNA (day 14, genotype 1, pegylated interferon alone): 1.3 log 10 | mean reduction from baseline in plasma HCV RNA (day 14, pegylated interferon alone): 1.7 log 10
